Molecular target: plasma ATX (Rattus norvegicus, UniProt Q64610)
Conditions: single dose 10 mg/kg po

In the case of `O=C(OCc1ccc(OC(F)(F)F)cc1)N1C[C@@H]2CN(C(=O)c3ccc4[nH]nnc4c3)C[C@H]2C1` [Compound 13, (3aS,6aS)-5-(1H-Benzotriazole-5-carbonyl)-hexahydro-pyrrolo[3,4-c]pyrrole-2-carboxylic acid 4-trifluoromethoxy-benzyl ester], the “Inhibition of LPA formation 24 h post-dose” value (24 h post-dose) is reported as “no inhibition of LPA formation was visible” and the “Duration of significant inhibition of formation of all four LPA species” value (plasma incubated at 37°C) is reported as ≥ 6 h.
